Yeast mating assay 2: variants of the scFv Ab-95

Antigen: PDVDLGDISGINAS, a 14-residue peptide of the SARS-CoV-2 spike HR2 region.

Parent: Ab-95, a human scFv built as VH, a (GGGGS)3 linker, VL. Only the CDRs of the light chain vary.
VH: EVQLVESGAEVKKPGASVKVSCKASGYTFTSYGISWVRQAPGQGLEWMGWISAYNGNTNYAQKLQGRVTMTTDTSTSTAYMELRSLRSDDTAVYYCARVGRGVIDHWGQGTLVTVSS
VL: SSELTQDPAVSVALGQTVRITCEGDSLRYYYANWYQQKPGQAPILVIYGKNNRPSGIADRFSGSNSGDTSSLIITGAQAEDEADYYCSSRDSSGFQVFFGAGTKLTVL

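Library AAYL52 holds single substitutions and randomly drawn double and triple substitutions in the CDRs. In AlphaSeq, yeast of one mating type display the scFv and yeast of the other type display the target. Binding brings cells together so that they mate, and sequencing counts the barcode pairs among the diploids. Scores were corrected for input abundance and mapped to Kd with protein pairs of known affinity run in the same pool. The assay was run in three technical replicates.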

Substitutions are numbered in sequence along the VL above, starting at 1 (not Kabat).
All variants listed here change G24 of the VL, counted from its first residue.
Numbers give log10(Kd / nM), so 0 is 1 nM and 3 is 1 µM. Smaller is tighter.
A mean of the replicates is given; it leaves out those without a signal.
"not detected" means that the variant was in the library but no mating with the target was seen in any replicate; the authors take this as a sign of poor binding, and no number exists.
For reference, the parent read 2.31 as the reference entry and 2.25 as a member of this library.

changes	mean, log10 nM	detected
G24F+D91E	3.65	3 of 3
G24P+S26D	3.04	3 of 3
G24K+Y29M+Q96N	3.75	2 of 3
G24N+S92G	3.62	2 of 3
G24E+S55H+S88A	4.25	2 of 3
G24T+R28W+F98H	3.81	3 of 3
E23S+G24F+N33Q	not detected	0 of 3
G24Q+S26T+D91S	not detected	0 of 3
G24I+F95M+Q96Y	not detected	0 of 3
G24V+A32P+V97Y	3.84	3 of 3
G24L+P54G+F98Q	3.46	1 of 3
G24N+N33K+S93G	not detected	0 of 3
G24S+F95C+V97F	3.24	1 of 3
G24I+N51T+V97I	not detected	0 of 3
G24I+S26C+V97T	3.91	1 of 3
G24S+D25H+R53V	3.39	1 of 3
G24V+G94C+F98N	4.08	1 of 3
G24E+D25E+V97C	4.27	1 of 3
G24E+Y30E+S55E	3.00	3 of 3
G24C+S26F+K50V	5.59	1 of 3
G24T+N52C+V97N	4.53	3 of 3
G24N+Y30R	2.83	3 of 3
G24E+N51R+Q96C	4.05	2 of 3
G24K+G49C+R90H	not detected	0 of 3
G24L+Y29T+V97S	2.52	1 of 3
G24M+L27D+S92C	2.95	2 of 3
G24H+R90K+S92F	2.73	1 of 3
G24I+Y30G+R53Q	3.81	3 of 3
G24P+Y31S+R53C	not detected	0 of 3
G24A+R28S+G49A	4.01	1 of 3
G24T+Y30G+S89G	2.16	3 of 3
G24C+Y30H+N33L	3.15	3 of 3
G24M+G49Y+D91E	4.81	2 of 3
G24H+S26I+K50C	not detected	0 of 3
G24W+S89R+F95V	3.45	2 of 3
G24C+K50Y+F98M	5.36	1 of 3
G24A+G94S+F95R	3.69	3 of 3
G24D+N52T+Q96F	3.82	3 of 3
G24M+N52H	4.89	2 of 3
G24Q+S55R+Q96N	4.03	1 of 3
G24S+K50W+S92K	3.83	3 of 3
G24N+Y29K+S55V	1.24	3 of 3
G24D+V97M+F98R	not detected	0 of 3
G24D+Y29S+S92P	2.76	3 of 3
G24A+S55P+S92I	3.16	2 of 3
G24R+S89H+F98M	not detected	0 of 3
G24P+R28I+G94T	4.61	2 of 3
G24H+S88K+V97Q	2.65	3 of 3
G24W+D25S+G94S	3.08	2 of 3
G24M+A32G+N33R	3.40	1 of 3
G24W+R53Q	5.45	1 of 3
G24M+S26Q+S55C	not detected	0 of 3
G24Q+R53I+S89F	2.76	1 of 3
G24I+D25F+S89T	not detected	0 of 3
G24F+K50P+Q96I	4.08	3 of 3
G24N+S55Y+S89T	3.63	2 of 3
E23K+G24Q+N51F	not detected	0 of 3
G24P+Y31R+F95R	4.98	1 of 3
G24W+S26N+G49A	3.98	3 of 3
G24E+N52S+Q96L	3.86	1 of 3
E23L+G24M+Y31I	3.20	3 of 3
E23W+G24E+Y29A	4.11	1 of 3
G24S+V97Y	3.42	2 of 3

7 of these entries, quoted again:

changes	mean, log10 nM	detected
G24T+Y30G+S89G	2.16	3 of 3
G24E+N51R+Q96C	4.05	2 of 3
G24S+D25H+R53V	3.39	1 of 3
G24M+A32G+N33R	3.40	1 of 3
G24V+A32P+V97Y	3.84	3 of 3
G24E+D25E+V97C	4.27	1 of 3
G24P+Y31R+F95R	4.98	1 of 3

Three control strains display no target. For library AAYL52, 28% of the pairings with them gave a signal, with a median of 3.91 and one signal in twenty below 2.90, so weak values seen in few replicates may be background.

The measurements come from Engelhart et al. 2022 (doi:10.1038/s41597-022-01779-4) through the FLAb antibody collection.